For assay [1], the system named is bifid bacteria. The experiment in a line: Influence on growth-promoting activity for bifid bacteria in vivo (healthy volunteers, feces). Details: species or system human. The following applies: for Weight of feces: five healthy volunteers, mean ± SD. On the procedure: The weight of daily feces before and after the 14-day administration tests, the relative change of feces' weight, the feces' pH, the total number of microorganisms per g of feces, the percentage of the number of bifid bacteria to the total number of microorganisms in feces, and the relative change of the total number of bifid bacteria were measured, followed by calculating the mean value of the five volunteers. Among these measurements, the total number of microorganisms was determined in accordance with the method as reported in "A Color Atlas of Anaerobic Bacteria", pp.53-65 (1984), edited by Tomotari MITSUOKA, published by Kabushiki Kaisha Sobunsha, Tokyo, Japan (1984): The colonies grown in 13 different types of media excluding M10 medium were judged for which genus they belong to and counted for cells. The cell count obtained with a specific medium, which gave the highest number of microorganisms for each genus, was determined to be a real cell count. The total cell count of microorganisms of all the genera was determined to be the total number of microorganisms in each volunteer's feces.

Assay [2] concerns Eubacterium aerofaciens ATCC 25986. The experiment in a line: Assimilation test by intestinal microorganism. The format is cell-based. The following applies: 0.5 w/v % saccharide in PYF broth, 37° C., 96 hours; free of sugar: -.
For assay [3], the system named is Clostridium ramosum JCM 1298. The experiment in a line: Assimilation test by intestinal microorganism. The format is cell-based. The following applies: 0.5 w/v % saccharide in PYF broth, 37° C., 96 hours; free of sugar: -.
Assay [4] concerns Bacteroides vulgatus JCM 5826. The assay can be described thus: Assimilation test by intestinal microorganism. The format is cell-based. To be noted: 0.5 w/v % saccharide in PYF broth, 37° C., 96 hours; free of sugar: -.
Assay [5] has as its system Bacteroides distasonis JCM 5825. The assay can be described thus: Assimilation test by intestinal microorganism. The following applies: 0.5 w/v % saccharide in PYF broth, 37° C., 96 hours; free of sugar: -. The format is cell-based.
Assay [6] deals with bifid bacteria. The assay can be described thus: Assimilation test by intestinal microorganism, overall judgement. The format is cell-based. To be noted: compared with glucose and trehalose as a control. On the procedure:
To evaluate the growth rate of and to judge the assimilability by the microorganisms, the resultant broth was diluted 5-fold, and the turbidity of the dilution was measured at a wavelength of 750 nm in a 1-cm light-path cell. […] The criteria were in Table 3, and the results were in Tables 4 and 5: […]

The subject of assay [7] is Streptococcus faecalis IAM 10065. The experiment in a line: Assimilation test by intestinal microorganism. To be noted: 0.5 w/v % saccharide in PYF broth, 37° C., 96 hours; free of sugar: -. The format is cell-based.
The test system of assay [8] is Escherichia coli IFO 3301. The assay can be described thus: Assimilation test by intestinal microorganism. Type of assay: cell-based. To be noted: 0.5 w/v % saccharide in PYF broth, 37° C., 96 hours; free of sugar: -.
Assay [9] deals with Bacteroides uniformis JCM 5828. The experiment in a line: Assimilation test by intestinal microorganism. The following applies: 0.5 w/v % saccharide in PYF broth, 37° C., 96 hours; free of sugar: -. Type of assay: cell-based.
[10] abbreviates: After 10 g orally daily for 14 days.

The molecule `OC[C@H]1O[C@H](OC[C@H]2O[C@H](O[C@H]3O[C@H](CO)[C@@H](O)[C@H](O)[C@H]3O)[C@H](O)[C@@H](O)[C@@H]2O)[C@H](O)[C@@H](O)[C@@H]1O` [O-α-D-glucopyranosyl -(1→6)-α-D-glucopyranosyl α-D-glucopyranoside] came in with a Weight of feces in [1] (setting [10]) of 140 ± 37 g/day.
As to `OC[C@H]1O[C@H](OC[C@H]2O[C@H](O[C@H]3O[C@H](CO[C@H]4O[C@H](CO)[C@@H](O)[C@H](O)[C@H]4O)[C@@H](O)[C@H](O)[C@H]3O)[C@H](O)[C@@H](O)[C@@H]2O)[C@H](O)[C@@H](O)[C@@H]1O` [α-Isomaltosyl α-isomaltoside, O-α-D-glucopyranosyl -(1→6)-α-D-glucopyranosyl-O-α-D-glucopyranosyl-(1→6) -α-D-glucopyranoside], the “Relative changes of feces' weight” value in assay [1] (After 10 g orally daily for 14 days, before = 100) was found to be 111; in assay [1] ([…]), 100. Also, the Weight of feces in assay [1] (setting [10]) was 142 ± 40 g/day.
On to `OC[C@H]1O[C@H](OC[C@H]2O[C@H](OC[C@H]3O[C@H](O[C@H]4O[C@H](CO)[C@@H](O)[C@H](O)[C@H]4O)[C@H](O)[C@@H](O)[C@@H]3O)[C@H](O)[C@@H](O)[C@@H]2O)[C@H](O)[C@@H](O)[C@@H]1O` [α-Isomaltotriosyl α-glucoside, O-α-D-glucopyranosyl-(1→6)-O-α-D-glucopyranosyl-(1→6) α-D-glucopyranosyl α-D-glucopyranoside], for which the “Judgement of assimilation (turbidity at 750 nm, ×5)” value in assay [2], in assay [3], in assay [4], in assay [5], in assay [7] and in [8] was “- (Less than 0.1)” throughout. Besides, the “Judgement of assimilation (turbidity at 750 nm, ×5)” value in [9] was “- (Less than 0.1)”. Also, the “Selective assimilability by bifid bacteria, in words” value in assay [6] was “high in the selective assimilability by bifid bacteria”.

The values are drawn from US5858992A, “Non-reducing saccharides, their preparation and use” (Kabushiki Kaisha Hayashibara Seibutsu Kagaku Kenkyujo, priority 1995, dated 1999).
